## Curated experimental data: logP (octanol/water) values

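The numbers are reported measurements, compiled and curated for the OPERA QSAR suite. The files give a single number for a compound and property, which may rest on several reports. How each value was measured is not recorded, so precision varies. A value may pool stereoisomers or salt forms, and the file does not say which form was measured. Some entries may be limits or estimates that an upstream database listed as plain numbers.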

The octanol-water partition coefficient is given as log10; larger values mean a more lipophilic compound.
Cells with "n/a" have no entry in this list.

structure (SMILES)	name	logP (octanol/water)
O=C(Nc1ccc(Cl)cc1)Nc1ccc(Cl)c(Cl)c1	Triclocarban	4.342
Cn1cc(C(=O)O)c(C(F)F)n1	3-(Difluoromethyl)-1-methyl-1H-pyrazole-4-carboxylic acid	0.39
C=CN1CCCCCC1=O	N-Vinylcaprolactam	1.23
CC(C)[C@@]12CC[C@@](C)(O1)[C@@H](O)C2 (relative stereo)	n/a	1.02
Cl.Nc1cc(C(=O)NCC(O)CO)cc(C(=O)NCC(O)CO)c1 (centres undefined)	n/a	-2.4
CC(O)=N[C@@H](Cc1cnc[nH]1)C(=N)O	n/a	-1.7
O=C(CCCCC(=O)N(CCO)CCO)N(CCO)CCO	N,N,N',N'-Tetrakis(2-hydroxyethyl)hexanediamide	-2.5
N[C@@H](Cc1cc(Cl)c(O)c(Cl)c1)C(=O)O	3,5-Dichloro-L-tyrosine	-0.28
CCOC1=C(O)C(=O)O[C@@H]1[C@@H](O)CO	3-O-Ethylascorbic acid	-0.8
C/C=C\c1ccc(OCc2ccccc2)c(OC)c1	1-Benzyloxy-2-methoxy-4-(1-propenyl)benzene	4.02
C[N+](C)(C)C1CCCCC1.[OH-]	N,N,N-Trimethylcyclohexanaminium hydroxide (1:1)	-2.19
O=C1C=CC(=O)O1	2,5-Furandione	-2.645
COCCCN	3-Methoxypropylamine	-0.5
CC1=CC(C)C(CO)C(C)C1 (centres undefined)	2,4,6-Trimethylcyclohex-3-ene-1-methanol	3.6
CCCCC(CC)COC(=O)c1ccc(Nc2nc(Nc3ccc(C(=O)NC(C)(C)C)cc3)nc(Nc3ccc(C(=O)OCC(CC)CCCC)cc3)n2)cc1 (centres undefined)	Iscotrizinol	4.12
CCN1CC(C(O)C(CC2CCCCC2)NC(=O)C(Cc2c[nH]cn2)NC(=O)C(CC(=O)N2CC(OCOCCOC)C(OCOCCOC)C2)Cc2ccccc2)OC1=O (centres undefined)	n/a	1.87
O=C(Nc1cccc2c1C(=O)c1ccccc1C2=O)c1ccc(-c2ccc(N=Nc3ccc(-c4ccc(C(=O)Nc5cccc6c5C(=O)c5ccccc5C6=O)cc4)cc3)cc2)cc1	C.I. Vat Yellow 33	1.7
CCC(CO)(CO)C(=O)O	Butanoic acid, 2,2-bis(hydroxymethyl)-	0.21
Nc1cccc[n+]1[O-]	1-Oxopyridin-2-ylamine	-0.87
O=C(OCC1CO1)c1ccc(C(=O)OCC2CO2)cc1 (centres undefined)	Bis[(oxiran-2-yl)methyl] benzene-1,4-dicarboxylate	1.7
c1cc2c3c(c1)ccc1ccc4cccc-2c4c13	Benzo[ghi]fluoranthene	7.23
C=Cc1ccc(OC(C)=O)cc1	4-Ethenylphenyl acetate	2.4
CN=C(O)NNC	N,2-Dimethylhydrazine-1-carboximidic acid	-1.57
C[Si](C)(C)O[Si](C)(CCCOCC(O)CO)O[Si](C)(C)C (centres undefined)	n/a	5.25
N=C(NO)c1ccccc1	N-Hydroxybenzenecarboximidamide	1.48
CC(=O)O.Nc1ccc(/N=N/c2ccccc2)c(N)c1	n/a	1.1
CCOc1ccccc1C(=O)O	Benzoic acid, 2-ethoxy-	1.295
CC1(C)C2CC=C(CCC=O)C1C2 (centres undefined)	3-(6,6-Dimethylbicyclo[3.1.1]hept-2-en-2-yl)propanal	4.3
C#C[C@]1(OC(C)=O)CC[C@H]2[C@@H]3CCC4=C[C@@H](OC(C)=O)CC[C@@H]4[C@H]3CC[C@@]21C	Ethynodiol diacetate	5
N#CCc1ccc(Cl)cc1F	4-Chloro-2-fluorophenylacetonitrile	2.34
O=S1(=O)OCCCO1	1,3,2-Dioxathiane, 2,2-dioxide	0.06
CC(C)(CO)CO	2,2-Dimethylpropane-1,3-diol	0.12
O=P(OCCCl)(OCCCl)OCC(CCl)(CCl)COP(=O)(OCCCl)OCCCl	n/a	2.83
CCN(CC)CC(C)O (centres undefined)	2-Propanol, 1-(diethylamino)-	1.25
N#Cc1cccc(S(=O)(=O)CCCS(=O)(=O)[O-])c1C#N.[Na+]	Sodium 3-((2,3-dicyanophenyl)sulfonyl)propane-1-sulfonate	-2.05
N#Cc1ccc(Nc2nc(O)cc(=O)[nH]2)cc1	n/a	-0.078

A selection of 4 entries from above:

{"smiles": "O=S1(=O)OCCCO1", "name": "1,3,2-Dioxathiane, 2,2-dioxide", "logP (octanol/water)": "0.06"}
{"smiles": "O=C(Nc1ccc(Cl)cc1)Nc1ccc(Cl)c(Cl)c1", "name": "Triclocarban", "logP (octanol/water)": "4.342"}
{"smiles": "N#CCc1ccc(Cl)cc1F", "name": "4-Chloro-2-fluorophenylacetonitrile", "logP (octanol/water)": "2.34"}
{"smiles": "O=P(OCCCl)(OCCCl)OCC(CCl)(CCl)COP(=O)(OCCCl)OCCCl", "logP (octanol/water)": "2.83"}

From the experimental data distributed with OPERA 2.9.